{
  "sequences": {"note": "Sequences of proteins named here, by UniProt entry; tags and fusion partners are left off. Residues count along the entry.", "UniProt P61169, whole entry": "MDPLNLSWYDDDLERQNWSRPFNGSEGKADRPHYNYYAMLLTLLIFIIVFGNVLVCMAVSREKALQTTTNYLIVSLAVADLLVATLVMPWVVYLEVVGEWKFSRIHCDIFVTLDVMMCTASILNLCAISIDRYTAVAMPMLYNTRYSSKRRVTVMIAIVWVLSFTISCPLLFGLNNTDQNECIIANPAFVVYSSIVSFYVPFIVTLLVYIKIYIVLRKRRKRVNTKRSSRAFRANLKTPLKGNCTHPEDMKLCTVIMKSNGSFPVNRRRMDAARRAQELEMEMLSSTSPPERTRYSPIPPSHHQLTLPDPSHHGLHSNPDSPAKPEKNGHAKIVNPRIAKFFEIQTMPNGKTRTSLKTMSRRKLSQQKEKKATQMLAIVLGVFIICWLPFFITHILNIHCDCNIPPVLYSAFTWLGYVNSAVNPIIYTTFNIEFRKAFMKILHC", "UniProt P31390, whole entry": "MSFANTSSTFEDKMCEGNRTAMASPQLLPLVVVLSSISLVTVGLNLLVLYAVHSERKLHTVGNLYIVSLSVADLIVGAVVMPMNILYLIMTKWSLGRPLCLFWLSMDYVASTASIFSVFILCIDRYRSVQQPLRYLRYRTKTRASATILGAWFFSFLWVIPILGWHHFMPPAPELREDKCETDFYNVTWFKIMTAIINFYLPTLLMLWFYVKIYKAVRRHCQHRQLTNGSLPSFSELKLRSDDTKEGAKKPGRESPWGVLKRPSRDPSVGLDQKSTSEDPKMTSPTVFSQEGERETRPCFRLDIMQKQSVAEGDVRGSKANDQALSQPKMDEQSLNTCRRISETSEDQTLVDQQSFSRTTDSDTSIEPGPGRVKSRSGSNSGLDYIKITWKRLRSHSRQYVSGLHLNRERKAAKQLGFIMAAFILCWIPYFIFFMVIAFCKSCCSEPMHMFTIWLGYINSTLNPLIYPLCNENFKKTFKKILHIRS", "UniProt P28564, whole entry": "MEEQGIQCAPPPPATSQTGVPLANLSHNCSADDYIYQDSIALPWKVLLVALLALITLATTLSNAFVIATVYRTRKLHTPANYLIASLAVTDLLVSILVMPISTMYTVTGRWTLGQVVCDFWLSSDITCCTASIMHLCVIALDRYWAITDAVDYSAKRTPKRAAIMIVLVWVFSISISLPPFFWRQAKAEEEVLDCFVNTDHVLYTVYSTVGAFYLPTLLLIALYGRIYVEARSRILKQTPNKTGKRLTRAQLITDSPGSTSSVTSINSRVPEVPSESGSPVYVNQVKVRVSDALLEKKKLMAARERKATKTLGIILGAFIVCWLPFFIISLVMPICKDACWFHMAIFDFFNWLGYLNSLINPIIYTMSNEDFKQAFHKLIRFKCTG", "UniProt P35563, 24-483": "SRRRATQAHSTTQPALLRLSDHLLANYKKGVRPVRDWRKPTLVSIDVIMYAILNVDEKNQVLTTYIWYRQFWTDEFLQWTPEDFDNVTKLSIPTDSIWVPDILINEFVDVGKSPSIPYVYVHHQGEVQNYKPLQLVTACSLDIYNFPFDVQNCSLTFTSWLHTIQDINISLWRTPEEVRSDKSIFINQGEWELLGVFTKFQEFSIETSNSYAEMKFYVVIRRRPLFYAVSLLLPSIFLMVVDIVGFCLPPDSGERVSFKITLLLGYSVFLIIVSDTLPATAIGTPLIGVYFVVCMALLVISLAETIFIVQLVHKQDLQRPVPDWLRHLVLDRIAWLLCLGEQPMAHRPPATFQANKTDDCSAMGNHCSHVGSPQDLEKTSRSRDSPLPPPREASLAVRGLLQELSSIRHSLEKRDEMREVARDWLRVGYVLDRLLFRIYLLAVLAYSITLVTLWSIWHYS", "UniProt P31652, whole entry": "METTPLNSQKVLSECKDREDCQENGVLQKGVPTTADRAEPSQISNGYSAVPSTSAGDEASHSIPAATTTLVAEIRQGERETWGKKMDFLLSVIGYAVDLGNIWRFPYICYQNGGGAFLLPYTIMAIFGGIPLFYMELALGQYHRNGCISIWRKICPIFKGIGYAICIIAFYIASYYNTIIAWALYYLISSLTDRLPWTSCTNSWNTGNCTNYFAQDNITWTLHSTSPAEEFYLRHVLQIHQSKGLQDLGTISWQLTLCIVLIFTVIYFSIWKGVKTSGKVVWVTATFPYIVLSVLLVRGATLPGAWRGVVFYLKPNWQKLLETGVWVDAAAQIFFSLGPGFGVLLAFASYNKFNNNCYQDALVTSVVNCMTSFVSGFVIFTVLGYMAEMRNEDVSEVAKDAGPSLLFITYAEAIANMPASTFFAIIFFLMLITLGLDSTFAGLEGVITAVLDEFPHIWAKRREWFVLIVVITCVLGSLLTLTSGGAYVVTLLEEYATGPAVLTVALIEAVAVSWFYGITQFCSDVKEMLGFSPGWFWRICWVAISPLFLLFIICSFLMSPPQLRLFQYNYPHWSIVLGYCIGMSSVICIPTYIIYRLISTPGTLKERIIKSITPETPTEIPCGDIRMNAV", "UniProt P14842, whole entry": "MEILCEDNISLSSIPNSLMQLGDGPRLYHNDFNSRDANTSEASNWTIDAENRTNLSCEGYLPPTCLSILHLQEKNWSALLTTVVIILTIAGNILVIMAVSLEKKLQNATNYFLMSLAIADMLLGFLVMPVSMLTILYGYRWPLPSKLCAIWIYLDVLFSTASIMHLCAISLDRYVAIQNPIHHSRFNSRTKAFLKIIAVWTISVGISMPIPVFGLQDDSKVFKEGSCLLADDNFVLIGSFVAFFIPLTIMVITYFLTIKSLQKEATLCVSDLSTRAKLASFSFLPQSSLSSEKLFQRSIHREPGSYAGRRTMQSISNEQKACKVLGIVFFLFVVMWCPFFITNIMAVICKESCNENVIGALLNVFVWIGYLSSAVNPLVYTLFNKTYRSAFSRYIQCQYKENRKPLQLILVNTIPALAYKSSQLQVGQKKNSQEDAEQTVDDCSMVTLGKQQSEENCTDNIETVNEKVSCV"},
  "source": "patent US6713443B1",
  "about": "“Compounds which modify serotoninergic transmission, diagnostic and therapeutic applications” (Institut Pasteur, priority 1993, dated 2004)",
  "key": {"[1]": {"test_system": "BALB/C mice", "test": "Raised cross-shaped labyrinth", "type": "in vivo", "excerpt": "This experimental test is used to determine the degree of anxiety and consists in a raised labyrinth with two branches, one protected by walls and the other unprotected.\nThe animal is assumed to be anxious when it avoids the entrance and reduces the time spent in the open branches.\nMale BALB/C mice weighing 20 to 24 g were used.\nThe raised cross-shaped labyrinth was made of plexiglass with open branches and two closed branches of the same size (12.5×5 cm) with walls 15 cm high, these branches extending from a central platform of 5×5 cm, placed 40 cm above the ground.\nLSAL dissolved in 5 ml of saline solution at 0.9% in a volume of 5 μl was injected via the icv route into the mice. Three hours later, the animal was placed on the central platform of the labyrinth. Each entry into a branch as well as the time spent in each branch was recorded. The duration of the test was 5 minutes. The labyrinth was cleaned after each test.\nLSAL was tested under conditions of low light intensity (BENJAMIN D. et al., Life Sci. 47, 195-203 (1990)).\nThe results were expressed as mean plus or minus the standard deviation of the percentage of entries into the open branches (% entries into the open branches), percentage of time spent in the open branches (% time in the open branch) and total number of entries into the branches. Difference with the control: *p<0.05, **p<0.01 (student's test)."}, "[2]": {"target": "T1, dopaminergic D2 receptor (Rattus norvegicus, UniProt P61169)", "T1 construct": "from tissue; host or cells: rat brain membranes", "test": "D2 radioligand binding, rat brain membranes", "details": "1 nM peptide; [3H]epiperone (2 nM) + 10 μM 5-HT"}, "[3]": {"target": "5-HT1 receptors", "test": "Inhibition of [3H]5-HT binding to the 5-HT1 receptors", "parameters": "species or system rat", "procedure": "Using, as discrimination criterion, the capacity of a potential factor to interact with the recognition of 5-HT by the 5-HT1B/1D receptor of membranes of rat brain synaptosomes, as described in FR-2,657,784, an active compound was purified from rat, horse and bovine brain extracts. The methodology of the purification involved separations by gel permeation, normal or reversed phases or alternatively ion exchanges.\nThe synthetic peptide LSAL was tested for its capacity to “mimic” the effects of the purified fraction obtained from brain extracts."}, "[4]": {"test_system": "5-HT1EFC", "test": "[3H]5-HT + 5-CT binding, rat brain membranes", "details": "1 nM peptide; [3H]5-HT (30 nM) + 20 nM 5-CT"}, "[5]": {"target": "5-HT1D receptors", "test": "[3H]5-HT binding to 5-HT1D receptors, human brain"}, "[6]": {"test_system": "opiate receptors", "test": "[3H]naloxone binding, rat brain membranes", "details": "1 nM peptide; [3H]naloxone (2 nM)"}, "[7]": {"test_system": "benzodiazepine receptors", "test": "[3H]flunitrazepam binding, rat brain membranes", "details": "1 nM peptide; [3H]flunitrazepam (3 nM)"}, "[8]": {"test_system": "α1 adrenergic receptor", "test": "[3H]prazosin binding, rat brain membranes", "details": "1 nM peptide; [3H]prazosin (2 nM)"}, "[9]": {"target": "T2, histaminergic H1 receptor (Rattus norvegicus, UniProt P31390)", "T2 construct": "from tissue; host or cells: rat brain membranes", "test": "[3H]mepyramine binding, rat brain membranes", "details": "1 nM peptide; [3H]mepyramine (5 nM)"}, "[10]": {"test_system": "recapture of choline, GABA, histamine, dopamine and noradrenaline", "test": "Recapture of other neurotransmitters or their precursors", "type": "biochemical"}, "[11]": {"test_system": "C57/BL/6 mice", "test": "Open field test", "type": "in vivo", "procedure": "The activity of LSAL was determined in the open field test on c57/black-6 mice. Male C57/BL/6 mice (20-25 g) were used. The open field consisted of a white plastic box (35×35×20 cm) divided into 25 equal squares. LSAL dissolved in 5 ml of 0.9% saline solution in a volume of 5 μl was injected via the icv route into the mice, which were placed in a corner of the box. After two minutes, the number of squares crossed, the U-turns made and the immobilization time were measured. The results are expressed as the mean plus or minus the standard deviation. Difference with the control: *p<0.05, **p<0.005 (student's test)."}, "[12]": {"target": "T3, 5-HT1B/D receptors (Rattus norvegicus, UniProt P28564)", "T3 construct": "rat brain hippocampus synaptosomes previously charged with radioactive amine; from tissue; host or cells: rat brain hippocampus synaptosomes", "test": "K+-induced liberation of [3H]5-HT from rat brain hippocampus synaptosomes", "type": "cell-based", "excerpt": "FIG. 3 represents the effect of the peptide on the release of serotonin in the synaptosomes of rat brain hippocampus. The results are expressed in percentages of [^3H]5-HT release (P2/P1 ratio) in the absence of peptide. Each point is the mean plus or minus the standard deviation of triplicate determinations, obtained with the aid of 3-6 separate hippocampus homogenates.\nThe method used is the method described above (BOLANOS-JIMENEZ B. et al., Eur. J. Pharmacol. 242, 1-6 (1993)) with the following modifications: the [^3H]acetylcholine was substituted by 60 nM [^3H]5-HT and 0.01% ascorbic acid was added to the incubation medium.\nThe activity of the peptide on the liberation of [^3H]5-HT from rat brain hippocampus synaptosomes previously charged with radioactive amine was examined."}, "[13]": {"target": "T4, 5-HT3 (Rattus norvegicus, UniProt P35563)", "T4 construct": "from tissue; host or cells: rat brain membranes", "test": "[3H]BRL 43694 binding, rat brain membranes", "details": "1 nM peptide; [3H]BRL 43694 (3 nM)"}, "[14]": {"target": "5-HT1D receptors", "test": "[3H]5-HT binding to 5-HT1D receptors, guinea pig", "details": "guinea pigs"}, "[15]": {"target": "T5, site of recapture of 5-HT (Rattus norvegicus, UniProt P31652)", "T5 construct": "from tissue; host or cells: synaptosomal preparations", "test": "Recapture of 5-HT in synaptosomal preparations", "type": "biochemical"}, "[16]": {"target": "T6, 5-HT2A (Rattus norvegicus, UniProt P14842)", "T6 construct": "from tissue; host or cells: rat brain membranes", "test": "[3H]DOB binding, rat brain membranes", "details": "1 nM peptide; [3H]DOB (5 nM)"}, "[17]": {"details": "LSAL 0.5 μg, 1 hour after i.v. injection"}, "[18]": {"details": "LSAL 2 μg, 1 hour after i.v. injection"}, "[19]": {"details": "LSAL 2 μg, 3 hours after i.v. injection"}, "[20]": {"details": "LSAL 10 μg, 1 hour after i.v. injection"}, "[21]": {"details": "LSAL 10 μg, 3 hours after i.v. injection"}, "[22]": {"details": "LSAL 50 μg, 3 hours after i.v. injection"}},
  "note": "Marks after values point to notes of the source that are not given here.",
  "data": [
    {"smiles": "CC(C)C[C@H](NC(=O)[C@H](C)NC(=O)[C@H](CO)NC(=O)[C@@H](N)CC(C)C)C(=O)O", "note": "[LSAL, Leu-Ser-Ala-Leu]", "values": [
      {"measurement": "% Total entries into the branches", "setting": "[1]; [17]", "result": "8 ± 2", "unit": "%"},
      {"measurement": "% entries into the open branches", "setting": "[1]; [17]", "result": "63 ± 11", "unit": "%"},
      {"measurement": "% time spent in the open branches", "setting": "[1]; [17]", "result": "64 ± 8", "unit": "%"},
      {"measurement": "% Total entries into the branches", "setting": "[1]; [18]", "result": "8 ± 2", "unit": "%"},
      {"measurement": "% entries into the open branches", "setting": "[1]; [18]", "result": "69 ± 10", "unit": "%"},
      {"measurement": "% time spent in the open branches", "setting": "[1]; [18]", "result": "73 ± 8", "unit": "%"},
      {"measurement": "% Total entries into the branches", "setting": "[1]; [19]", "result": "15 ± 2** %"},
      {"measurement": "% entries into the open branches", "setting": "[1]; [19]", "result": "60 ± 8", "unit": "%"},
      {"measurement": "% time spent in the open branches", "setting": "[1]; [19]", "result": "62 ± 9", "unit": "%"},
      {"measurement": "% Total entries into the branches", "setting": "[1]; [20]", "result": "9 ± 2* %"},
      {"measurement": "% entries into the open branches", "setting": "[1]; [20]", "result": "80 ± 6", "unit": "%"},
      {"measurement": "% time spent in the open branches", "setting": "[1]; [20]", "result": "69 ± 6", "unit": "%"},
      {"measurement": "% Total entries into the branches", "setting": "[1]; [21]", "result": "14 ± 1** %"},
      {"measurement": "% entries into the open branches", "setting": "[1]; [21]", "result": "80 ± 5** %"},
      {"measurement": "% time spent in the open branches", "setting": "[1]; [21]", "result": "85 ± 4* %"},
      {"measurement": "% Total entries into the branches", "setting": "[1]; [22]", "result": "8 ± 1", "unit": "%"},
      {"measurement": "% entries into the open branches", "setting": "[1]; [22]", "result": "56 ± 7", "unit": "%"},
      {"measurement": "% time spent in the open branches", "setting": "[1]; [22]", "result": "55 ± 7* %"},
      {"measurement": "entries into the unprotected open branches of the labyrinth", "setting": "[1]; dose of 10 μg", "result": "increases the number of entries"},
      {"measurement": "overall effect on anxiety in the labyrinth", "setting": "[1]; under the experimental conditions used", "result": "anxiogenic effect"},
      {"measurement": "INHIBITORY EFFECT AS % OF THE CONTROL", "setting": "[2]", "result": "2 ± 3 % of the control"},
      {"measurement": "IC50", "setting": "[3]", "result": "~10", "unit": "pM"},
      {"measurement": "INHIBITORY EFFECT AS % OF THE CONTROL", "setting": "[4]", "result": "0 ± 10 % of the control"},
      {"measurement": "IC50", "setting": "[5]", "result": 10, "unit": "pM"},
      {"measurement": "INHIBITORY EFFECT AS % OF THE CONTROL", "setting": "[6]", "result": "10 ± 10 % of the control"},
      {"measurement": "INHIBITORY EFFECT AS % OF THE CONTROL", "setting": "[7]", "result": "2 ± 2 % of the control"},
      {"measurement": "INHIBITORY EFFECT AS % OF THE CONTROL", "setting": "[8]", "result": "5 ± 3 % of the control"},
      {"measurement": "INHIBITORY EFFECT AS % OF THE CONTROL", "setting": "[9]", "result": "10 ± 10 % of the control"},
      {"measurement": "effect on the recapture of other neurotransmitters (or their precursors)", "setting": "[10]", "result": "Neither did it show any effect"},
      {"measurement": "exploratory activity compared with the control animals", "setting": "[11]; 50 μg ICV per animal", "result": "significantly decreased"},
      {"measurement": "Immobilization time", "setting": "[11]; LSAL 50 μg icv, C57/BL/6 mice", "result": "47 ± 8** sec."},
      {"measurement": "Number of rightings", "setting": "[11]; LSAL 50 μg icv, C57/BL/6 mice", "result": "15 ± 3*"},
      {"measurement": "Number of squares crossed", "setting": "[11]; LSAL 50 μg icv, C57/BL/6 mice", "result": "88 ± 9*"},
      {"measurement": "IC50", "setting": "[12]", "result": "~10", "unit": "pM"},
      {"measurement": "Emax at 0.0001 µM", "setting": "[12]; at a concentration of 10^−10M, decreases at higher concentrations, read-out: maximum effect, inhibition of the evoked liberation", "result": "20 to 25", "unit": "%"},
      {"measurement": "effect on the action of 5-HT on the liberation of [3H]5-HT", "setting": "[12]; conditions similar to the binding tests (at equilibrium)", "result": "counteracts its inhibitory effect"},
      {"measurement": "INHIBITORY EFFECT AS % OF THE CONTROL", "setting": "[13]", "result": "0 ± 10 % of the control"},
      {"measurement": "IC50", "setting": "[14]", "result": 10, "unit": "pM"},
      {"measurement": "effect on the recapture of 5-HT", "setting": "[15]", "result": "did not show any other effect"},
      {"measurement": "INHIBITORY EFFECT AS % OF THE CONTROL", "setting": "[16]", "result": "2 ± 8 % of the control"}
    ]}
  ]
}
